BindingDB's records for doi:10.1021/acschembio.6b00776 (Wayne State University, 2017)

By UniProt entry, the sequences of proteins in these tests, tags left out. Where a name states a change or a piece, a line headed by the entry shows the natural chain unless it says otherwise.
UniProt P56524: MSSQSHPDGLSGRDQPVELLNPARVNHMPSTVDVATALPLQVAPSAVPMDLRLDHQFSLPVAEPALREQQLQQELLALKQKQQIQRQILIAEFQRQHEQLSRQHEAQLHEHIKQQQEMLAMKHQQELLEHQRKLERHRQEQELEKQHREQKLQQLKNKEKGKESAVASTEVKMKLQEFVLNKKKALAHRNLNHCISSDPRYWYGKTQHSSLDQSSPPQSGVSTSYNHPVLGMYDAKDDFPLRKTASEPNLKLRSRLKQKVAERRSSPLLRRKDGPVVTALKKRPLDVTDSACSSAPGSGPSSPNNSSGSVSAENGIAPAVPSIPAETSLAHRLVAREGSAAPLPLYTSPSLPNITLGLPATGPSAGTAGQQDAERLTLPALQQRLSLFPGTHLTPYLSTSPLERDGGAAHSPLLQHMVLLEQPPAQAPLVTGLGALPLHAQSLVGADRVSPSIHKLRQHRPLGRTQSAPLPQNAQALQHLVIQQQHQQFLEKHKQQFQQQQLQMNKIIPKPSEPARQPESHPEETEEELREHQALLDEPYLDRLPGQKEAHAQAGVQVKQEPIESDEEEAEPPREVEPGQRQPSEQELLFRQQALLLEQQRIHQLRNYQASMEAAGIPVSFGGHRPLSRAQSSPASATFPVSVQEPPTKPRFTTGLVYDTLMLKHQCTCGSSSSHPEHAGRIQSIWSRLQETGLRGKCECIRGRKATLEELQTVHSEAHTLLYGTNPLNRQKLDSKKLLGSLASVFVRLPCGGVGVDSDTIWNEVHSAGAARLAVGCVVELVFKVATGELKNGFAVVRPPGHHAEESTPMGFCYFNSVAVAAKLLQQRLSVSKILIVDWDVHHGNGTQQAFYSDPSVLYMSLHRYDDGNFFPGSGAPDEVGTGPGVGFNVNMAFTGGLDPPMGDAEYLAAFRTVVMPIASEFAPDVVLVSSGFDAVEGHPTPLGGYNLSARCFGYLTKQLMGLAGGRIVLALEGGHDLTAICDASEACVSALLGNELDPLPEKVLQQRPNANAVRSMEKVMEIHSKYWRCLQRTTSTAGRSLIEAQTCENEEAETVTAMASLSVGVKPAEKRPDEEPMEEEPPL

What was measured:
Histone deacetylase 6 = molecular target: T1, Histone deacetylase 6 (Homo sapiens, UniProt Q9UBN7)
T1 sequence (Q9UBN7 whole entry): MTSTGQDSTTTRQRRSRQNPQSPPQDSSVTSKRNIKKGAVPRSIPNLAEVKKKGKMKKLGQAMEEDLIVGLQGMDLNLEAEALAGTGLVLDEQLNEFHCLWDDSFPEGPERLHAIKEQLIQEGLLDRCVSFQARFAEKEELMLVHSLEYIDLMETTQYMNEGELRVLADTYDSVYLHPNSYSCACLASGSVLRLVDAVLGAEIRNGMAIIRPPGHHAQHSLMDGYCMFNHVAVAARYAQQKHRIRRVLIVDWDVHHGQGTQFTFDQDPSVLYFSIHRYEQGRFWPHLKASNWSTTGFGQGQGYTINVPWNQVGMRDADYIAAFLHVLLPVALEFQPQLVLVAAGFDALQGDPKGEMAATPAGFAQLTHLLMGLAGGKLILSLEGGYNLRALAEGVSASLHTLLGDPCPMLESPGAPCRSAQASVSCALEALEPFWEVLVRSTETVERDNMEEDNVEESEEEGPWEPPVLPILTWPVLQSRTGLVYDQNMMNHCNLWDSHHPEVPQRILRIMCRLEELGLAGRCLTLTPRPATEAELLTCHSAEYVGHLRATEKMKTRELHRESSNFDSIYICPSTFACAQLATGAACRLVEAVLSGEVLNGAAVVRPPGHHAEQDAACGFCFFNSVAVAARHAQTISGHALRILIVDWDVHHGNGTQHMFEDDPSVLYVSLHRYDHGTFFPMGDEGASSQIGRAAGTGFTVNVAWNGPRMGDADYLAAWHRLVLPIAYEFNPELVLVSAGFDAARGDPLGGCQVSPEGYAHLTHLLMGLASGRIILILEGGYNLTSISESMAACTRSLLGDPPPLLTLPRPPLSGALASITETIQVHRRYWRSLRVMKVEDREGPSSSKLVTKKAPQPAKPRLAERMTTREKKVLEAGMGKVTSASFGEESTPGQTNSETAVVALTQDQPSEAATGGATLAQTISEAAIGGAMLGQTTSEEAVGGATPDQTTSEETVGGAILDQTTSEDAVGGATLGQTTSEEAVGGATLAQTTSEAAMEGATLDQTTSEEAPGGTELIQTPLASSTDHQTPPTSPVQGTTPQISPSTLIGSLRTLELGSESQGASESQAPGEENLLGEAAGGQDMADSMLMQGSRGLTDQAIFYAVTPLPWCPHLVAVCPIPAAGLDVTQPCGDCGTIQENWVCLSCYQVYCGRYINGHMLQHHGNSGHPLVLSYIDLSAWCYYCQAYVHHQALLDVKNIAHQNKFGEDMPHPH

Histone deacetylase 4 = Histone deacetylase 4 (Homo sapiens, UniProt P56524)

| IC50 (Histone deacetylase 6) | IC50 (Histone deacetylase 4) | SMILES |
| --- | --- | --- |
| > 10 µM |  | CC(=O)Nc1ccc(C(=O)Nc2cc(-c3cccs3)ccc2N)cc1 [N-[2-amino-5-(thiophen-2-yl)phenyl]-4-acetamidobenzamide] |
|  | > 30 µM | CN1CCc2c(c3ccccc3n2Cc2ccc(C(=O)NO)cc2)C1 |
